Yeast mating assay 1: variants of the scFv Ab-14

Target: peptide PDVDLGDISGINAS, taken from heptad repeat 2 (HR2) of SARS-CoV-2 spike.

Ab-14 is the parent antibody, in scFv form: VH, then three GGGGS repeats, then VL. The heavy chain is unchanged in all variants.
VH: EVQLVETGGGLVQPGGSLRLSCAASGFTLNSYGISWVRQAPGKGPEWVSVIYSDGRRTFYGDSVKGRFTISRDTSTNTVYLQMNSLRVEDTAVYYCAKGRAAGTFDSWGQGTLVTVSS
VL: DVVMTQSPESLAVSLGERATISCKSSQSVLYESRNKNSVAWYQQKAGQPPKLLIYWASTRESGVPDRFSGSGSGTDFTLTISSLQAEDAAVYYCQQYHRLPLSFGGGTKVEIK

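The parent was found by panning a naive human phage display library on the peptide. Library AAYL50 holds single substitutions and randomly drawn double and triple substitutions in the CDRs. The assay is AlphaSeq: two haploid yeast populations carry antibody and antigen on their surface. Mating (16 h, 30 °C) was followed by selection of diploids and sequencing of their barcodes. Scores were corrected for input abundance and mapped to Kd with protein pairs of known affinity run in the same pool. Mating was done three times.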

Each variant is given by its three light chain CDRs, as the data file delimits them; those of the parent are KSSQSVLYESRNKNSVA, WASTRES, QQYHRLPLS. The read-out is the apparent dissociation constant on a log10 scale (nM): the lower, the stronger. Where no diploid with the target was found in that replicate, the entry reads "n.d.": below detection, most likely a poor binder, though not proof of it. Nonspecific signal, from three strains lacking the peptide, appeared in 18% of pairings of library AAYL50, centred on 4.19 (5% of these signals below 2.99); values are not corrected for it. For each scFv, signals with the empty controls are counted beside the result, with their mean in brackets.

{"CDR-L1": "ISSQSVLYESRNKNCVA", "CDR-L2": "WASTRED", "CDR-L3": "QQYHRLPLS", "log10 Kd, replicates": "3.06 / 2.56 / 2.75", "empty controls": "2/9 (4.53)"}
{"CDR-L1": "KHSQSVLYESRNKNSVA", "CDR-L2": "HASTRES", "CDR-L3": "QDYHRLPLS", "log10 Kd, replicates": "-0.19 / 0.08 / -0.07", "empty controls": "3/9 (4.99)"}
{"CDR-L1": "KSSQSVLYESRNKNSVA", "CDR-L2": "WAITRES", "CDR-L3": "HQYHRIPLS", "log10 Kd, replicates": "5.28 / n.d. / n.d.", "empty controls": "2/9 (3.68)"}
{"CDR-L1": "KSSLSVLYHSRNKNSVA", "CDR-L2": "WASTRES", "CDR-L3": "LQYHRLPLS", "log10 Kd, replicates": "n.d. / n.d. / n.d.", "empty controls": "0/9"}
{"CDR-L1": "KSSQSVLYESINKNSVA", "CDR-L2": "WASTRES", "CDR-L3": "QQYKRLPSS", "log10 Kd, replicates": "0.64 / 0.79 / 0.80", "empty controls": "0/9"}
{"CDR-L1": "KSSQSVLYESRAKNYVA", "CDR-L2": "WASTRES", "CDR-L3": "QQYHSLPLS", "log10 Kd, replicates": "n.d. / n.d. / n.d.", "empty controls": "0/9"}
{"CDR-L1": "KSSQSVLYESRNKNSVA", "CDR-L2": "WASTREV", "CDR-L3": "QQYHRLQWS", "log10 Kd, replicates": "4.07 / n.d. / n.d.", "empty controls": "1/9 (3.23)"}
{"CDR-L1": "KSSQSVLYESRNKNSVA", "CDR-L2": "WASLREC", "CDR-L3": "VQYHRLPLS", "log10 Kd, replicates": "n.d. / n.d. / n.d.", "empty controls": "2/9 (4.72)"}
{"CDR-L1": "KSSQSVLYESRNKNSTA", "CDR-L2": "WASTYES", "CDR-L3": "QQIHRLPLS", "log10 Kd, replicates": "n.d. / 4.21 / n.d.", "empty controls": "0/9"}
{"CDR-L1": "KSSQSVVYESRNKNVVA", "CDR-L2": "WASTRES", "CDR-L3": "QQYKRLPLS", "log10 Kd, replicates": "n.d. / n.d. / n.d.", "empty controls": "0/9"}
{"CDR-L1": "KSSQSVLYESRNKNSVA", "CDR-L2": "WASTRES", "CDR-L3": "QQYYRLCLS", "log10 Kd, replicates": "n.d. / n.d. / n.d.", "empty controls": "0/9"}
{"CDR-L1": "KSSQSVLYESRMKNSVA", "CDR-L2": "WATTRES", "CDR-L3": "QQTHRLPLS", "log10 Kd, replicates": "n.d. / 3.55 / 3.29", "empty controls": "0/9"}
{"CDR-L1": "KSSQSVLYESRNKKSVA", "CDR-L2": "WASTRES", "CDR-L3": "QTYHRLPWS", "log10 Kd, replicates": "2.79 / 3.07 / 3.35", "empty controls": "3/9 (4.01)"}
{"CDR-L1": "KSSQSVLYGSRNKNSVA", "CDR-L2": "CASTRES", "CDR-L3": "QQYHRLFLS", "log10 Kd, replicates": "n.d. / n.d. / n.d.", "empty controls": "2/9 (4.42)"}
{"CDR-L1": "KSSQSVLYESRLKNSVA", "CDR-L2": "WASFRES", "CDR-L3": "QQYHRLPLM", "log10 Kd, replicates": "4.20 / 3.54 / 3.37", "empty controls": "3/9 (4.95)"}
{"CDR-L1": "KSSQSVLKESRNKNSVA", "CDR-L2": "WASTRED", "CDR-L3": "QQYHCLPLS", "log10 Kd, replicates": "0.60 / 0.84 / 0.67", "empty controls": "2/9 (4.88)"}
{"CDR-L1": "KSSQSVLYESRAKNSVA", "CDR-L2": "WASTRES", "CDR-L3": "CQYLRLPLS", "log10 Kd, replicates": "0.89 / 1.23 / 1.05", "empty controls": "2/9 (5.09)"}
{"CDR-L1": "KSSISVLYESRNKNSVA", "CDR-L2": "WASTAES", "CDR-L3": "QQHHRLPLS", "log10 Kd, replicates": "n.d. / n.d. / n.d.", "empty controls": "0/9"}
{"CDR-L1": "KSSQSVLYESRNRNSVA", "CDR-L2": "WPVTRES", "CDR-L3": "QQYHRLPLS", "log10 Kd, replicates": "4.42 / n.d. / n.d.", "empty controls": "1/9 (2.78)"}
{"CDR-L1": "KSSQSVLYESRNKNSAD", "CDR-L2": "WASTRES", "CDR-L3": "PQYHRLPLS", "log10 Kd, replicates": "n.d. / n.d. / n.d.", "empty controls": "0/9"}
{"CDR-L1": "KSSQSVQYESCNKNSVA", "CDR-L2": "WASTLES", "CDR-L3": "QQYHRLPLS", "log10 Kd, replicates": "1.78 / 2.06 / 1.87", "empty controls": "3/9 (4.11)"}
{"CDR-L1": "KSSQSVLQEIRNKNSVA", "CDR-L2": "WASTIES", "CDR-L3": "QQYHRLPLS", "log10 Kd, replicates": "2.30 / 2.33 / 2.71", "empty controls": "1/9 (4.70)"}
{"CDR-L1": "KSCQSVLYESRNKNWVA", "CDR-L2": "WASTVES", "CDR-L3": "QQYHRLPLS", "log10 Kd, replicates": "n.d. / 5.25 / n.d.", "empty controls": "2/9 (4.24)"}
{"CDR-L1": "KSSQSVIYESRNKNSVA", "CDR-L2": "WASTRER", "CDR-L3": "QQYHRLPNS", "log10 Kd, replicates": "n.d. / 4.68 / n.d.", "empty controls": "1/9 (2.79)"}
{"CDR-L1": "KSSQSVLYESRNNNSVA", "CDR-L2": "QASTRES", "CDR-L3": "TQYHRLPLS", "log10 Kd, replicates": "5.55 / n.d. / n.d.", "empty controls": "1/9 (4.17)"}

Top 4 of the variants detected in all replicates, tightest first:

{"CDR-L1": "KHSQSVLYESRNKNSVA", "CDR-L2": "HASTRES", "CDR-L3": "QDYHRLPLS", "log10 Kd, replicates": "-0.19 / 0.08 / -0.07", "empty controls": "3/9 (4.99)"}
{"CDR-L1": "KSSQSVLKESRNKNSVA", "CDR-L2": "WASTRED", "CDR-L3": "QQYHCLPLS", "log10 Kd, replicates": "0.60 / 0.84 / 0.67", "empty controls": "2/9 (4.88)"}
{"CDR-L1": "KSSQSVLYESINKNSVA", "CDR-L2": "WASTRES", "CDR-L3": "QQYKRLPSS", "log10 Kd, replicates": "0.64 / 0.79 / 0.80", "empty controls": "0/9"}
{"CDR-L1": "KSSQSVLYESRAKNSVA", "CDR-L2": "WASTRES", "CDR-L3": "CQYLRLPLS", "log10 Kd, replicates": "0.89 / 1.23 / 1.05", "empty controls": "2/9 (5.09)"}

The measurements come from Engelhart et al. 2022 (doi:10.1038/s41597-022-01779-4) through the FLAb antibody collection.